Only a part is listed here, and it is no random draw. Results filed as inconclusive are left out. The source made the active and inactive calls. Calls come from the whole dose curve; as a rule, active = well fitted cell-killing curve with a large enough effect; inconclusive = small, poorly fitted or top-dose-only effect; inactive = no such curve, though single readings can be large or run the other way.
assay: qHTS Screen for Compounds that Selectively Target Cancer Cells with p53 Mutations: Cytotoxicity of p53ts Cells at the Permissive Temperature; settings: H1299-p53A138V at 32C, ATP luminescence viability, 24 h; at 46.1 µM (top of the series) unless noted;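 note: 0% = DMSO and -100% = full killing by reference compound; nearly all actives have a fitted effect of over 55% in size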

Compound | activity change, negative = cytotoxicity
CN1CCC[C@H](OC(=O)C(c2ccccc2)c2ccccc2)C1 | inactive: -4.18% [at 9.22 µM]
C[C@@H](O)COc1ccc([As](=O)(O)O)cc1N | inactive: -4.84% [at 9.22 µM]
O=P(Nc1nccs1)(c1ccccc1)c1ccccc1 | inactive: 3.17%
c1nnnn1CCn1cnnn1 | inactive: -2.54%
O=C(OC1CN2CCC1CC2)c1cccc(Cl)c1 (centres undefined) | inactive: 2.01%
Cc1cc([N+](=O)[O-])cc([N+](=O)[O-])c1O | inactive: 4.69% [at 1.84 µM]
[N-]=[N+]=Nc1ccc([As](=O)(O)O)cc1 | inactive: -2.4% [at 9.22 µM]
COC(=O)c1cc2c(s1)N=C(c1ccccc1)N(C)P2(=O)N1CCOCC1 (centres undefined) | inactive: 8.63%
O=P1(Nc2nc3ccc(Cl)cc3s2)COc2ccccc2O1 (centres undefined) | inactive: -12.9%
NCC[C@@H](N)CSP(=O)(O)O | inactive: 0.851% [at 9.22 µM]
CN1CCCC(OC(=O)C(c2ccccc2)c2ccccc2)C1 (centres undefined) | inactive: 1.75%
O=[N+]([O-])c1ccc(C[As](=O)(O)O)cc1 | inactive: 0.0946% [at 9.22 µM]
[N-]=[N+]=NCC(O)CN=[N+]=[N-] (centres undefined) | inactive: 1.22% [at 9.22 µM]
C(Cc1nn[nH]n1)c1nn[nH]n1 | inactive: -1.85% [at 9.22 µM]
CN(C(=O)Cc1ccccc1)[C@@H]1CC[C@@]2(CCCO2)C[C@H]1N1CCCC1 | inactive: 2.99%
O=C(CO)Nc1ccc([As](=O)(O)O)cc1 | inactive: 3.2% [at 9.22 µM]
CCC(C)N(CC(C)C)C(=S)SC(NC(C)=O)C(Cl)(Cl)Cl (centres undefined) | inactive: -9.94%
COP1(=S)c2c(C)nn(CCC#N)c2N=C(c2ccc(F)cc2)N1C (centres undefined) | inactive: -1.62%
O=C(COc1ccccc1)OC1CN2CCC1CC2 (centres undefined) | inactive: 2.21%
O=C(O)[C@@H](O)c1ccc([As](=O)(O)O)cc1 | inactive: 4.96% [at 9.22 µM]

Compound | activity change, negative = cytotoxicity
CN(N=O)C(=N)N[N+](=O)[O-] | inactive: -2.62% [at 1.84 µM]
O=[As]c1ccc(S(=O)(=O)NCCO)cc1 (centres undefined) | inactive: 3.8% [at 9.22 µM]
ClCCSc1nnc(-c2cccnc2)o1 | inactive: -17.6%
[N-]=[N+]=NCC(N)=O | inactive: 3.67% [at 9.22 µM]
Cc1c2c(nc3ccccc13)SC(C(Cl)Cl)C2 (centres undefined) | inactive: 23.1%
O=C(OC1CN2CCC1CC2)C12CC3CC(CC(C3)C1)C2 (centres undefined) | inactive: -6.36%
NC(=O)Nc1cc([As](=O)(O)O)cc(I)c1O | inactive: 3.15% [at 9.22 µM]
NS(=O)(=O)Cc1ccc([As](=O)(O)O)cc1 | inactive: -1.69% [at 9.22 µM]
O=C(CC(=O)c1ccccc1)O[C@H]1CN2CCC1CC2 | inactive: 2.24% [at 9.22 µM]
CN(C(=O)Cc1ccc(Cl)c(Cl)c1)[C@@H]1CC[C@@]2(CCCO2)C[C@H]1N1CCCC1 | inactive: -17.3%
CCOP1(=S)c2c(C)nn(CCC#N)c2N=C(c2ccc(F)cc2)N1C (centres undefined) | inactive: -6.29%
O=P(Nc1nccs1)(c1ccccc1)c1nc2ccccc2s1 (centres undefined) | inactive: -1.93%
O=[As](O)(O)c1ccc([As](=O)(O)O)cc1 | inactive: -2.98% [at 9.22 µM]
O=P1(Nc2ncccn2)COc2ccccc2OC1 | inactive: 2.6%
O=P1(Nc2ccc(Br)cn2)COc2ccccc2OC1 | inactive: -1.54%
Cc1nn(-c2ccccc2)c2c1P(=O)(N1CCOCC1)N(C)C(c1ccccc1)=N2 (centres undefined) | inactive: 1.64%
O=P1(Nc2ccccn2)COc2ccccc2OC1 | inactive: -3.34%
CN(CCCl)Cc1cc(Cl)c(NC2=NCCN2)c(Cl)c1 | inactive: -9.01%
Clc1n[nH]nc1-c1nn[nH][15n]1 | inactive: 13%
